Sequences of proteins named here, by UniProt entry; tags and fusion partners are left off. Residues count along the entry.
UniProt P52699, 19-246: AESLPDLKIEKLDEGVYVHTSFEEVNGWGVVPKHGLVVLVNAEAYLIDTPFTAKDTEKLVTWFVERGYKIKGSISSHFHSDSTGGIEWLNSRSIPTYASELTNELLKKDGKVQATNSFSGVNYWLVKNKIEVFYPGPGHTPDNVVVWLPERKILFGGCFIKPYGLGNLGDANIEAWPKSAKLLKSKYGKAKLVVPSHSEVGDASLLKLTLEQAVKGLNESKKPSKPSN

According to PMC3463135 (Bioorganic & medicinal chemistry letters, 2012):

Target: recombinant IMP-1 (Serratia marcescens, UniProt P52699)
Assay: biochemical

Structure (SMILES) | IC50
O=C(O)c1csc(-c2ccccc2)n1 [Compound 2] | > 200 µM
O=C(O)[C@@H]1CSC(Cc2ccccc2)=N1 [Compound 3] | > 200 µM
O=C(O)[C@@H]1CSC(Cc2ccccc2)N1 (stereo partly shown) [Compound 6] | > 200 µM
O=C(O)[C@@H]1CSC(c2ccccc2)N1 (stereo partly shown) [Compound 7] | > 200 µM
O=C(O)[C@@H]1CSC(c2ccc(Cl)cc2)=N1 [Compound 8] | > 200 µM
O=C(O)[C@@H]1CSC(c2ccc(Br)cc2)=N1 [Compound 9] | > 200 µM
CC(=O)Nc1cccc(C2=N[C@H](C(=O)O)CS2)c1 [Compound 11] | > 200 µM
CC(C)(C)OC(=O)Nc1cccc(C2=N[C@H](C(=O)O)CS2)c1 [Compound 12] | > 200 µM
O=C(O)[C@@H]1CSC(c2ccccc2O)=N1 [Compound 13] | > 200 µM
O=C(Cc1ccccc1)NCC1=N[C@H](C(=O)O)CS1 [Compound 14] | > 200 µM
COc1cccc(CC(=O)NCC2=N[C@H](C(=O)O)CS2)c1 [Compound 15] | > 200 µM
CC(C)(C)OC(=O)NCC1=N[C@H](C(=O)O)CS1 [Compound 16] | > 200 µM
O=C(NCC1=N[C@H](C(=O)O)CS1)OCc1ccccc1 [Compound 17] | > 200 µM
